In US9605022B2, “Macrocyclic compounds for inhibition of inhibitors of apoptosis” (Ensemble Therapeutics Corporation, priority 2012, dated 2017):
Where two headings read alike, the source gives them in different places.

Protein sequences, listed by entry. Tags and fused reporters are not part of them. Lines headed by an entry give the natural chain unless they say otherwise; changes in a name come on top. Residues count along the entry.
UniProt P98170, 241-356 limits assumed: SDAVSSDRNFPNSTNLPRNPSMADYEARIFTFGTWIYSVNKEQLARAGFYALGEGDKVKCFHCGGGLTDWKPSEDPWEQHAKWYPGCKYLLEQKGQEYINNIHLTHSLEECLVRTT
UniProt P98170, 125-356 C202A/C213G limits assumed: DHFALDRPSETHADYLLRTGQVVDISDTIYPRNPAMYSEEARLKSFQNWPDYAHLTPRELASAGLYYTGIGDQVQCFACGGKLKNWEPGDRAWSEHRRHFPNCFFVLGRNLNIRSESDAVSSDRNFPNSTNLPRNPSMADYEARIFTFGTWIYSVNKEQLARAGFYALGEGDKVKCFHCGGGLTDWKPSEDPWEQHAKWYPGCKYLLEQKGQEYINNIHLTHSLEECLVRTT

Key:
[1] = target: XIAP BIR3 (His-BIR3 (241-356, XIAP)) (Homo sapiens (Human), UniProt P98170); test: XIAP-BIR3/SMAC Homogeneous Time Resolved Fluorescence (HTRF) Assay; conditions: read-out: XIAP BIR3 FRET IC50, 1 nM N-His-BIR3, 5 nM fluorescein labeled SMAC peptide
Procedure: Assays were performed in black, flat-bottom, 384-well plates. The final assay volume was 50 μL prepared from additions of His-BIR3 (241-356, XIAP), fluorescein labeled SMAC peptide, and test compounds in assay buffer consisting of 20 mM Sodium Phosphate, 1 mM EDTA, 50 mM NaCl, 50 μg/ml BSA, and 0.05% Pluronic F68. The reaction was incubated at room temperature for 60 minutes, following which 10 μl of mouse anti-6xHis-terbium labeled Fab (Medarex, Cis-bio) was added to the reaction (40 IA for an additional 30 minute incubation. The HTRF signal, ratio of fluorescence intensities at emission wavelengths for fluorescein acceptor (520 nm) and terbium donor (615 nm), the 520/615 ratio, generated by the reaction was then measured on the Envision Plate Reader Inhibition data were calculated from the 520/615 ratio generated by the no protein control reactions for 100% inhibition and vehicle-only reactions for 0% inhibition. The final concentration of reagents in the assay was 1 nM N-His-BIR3(241-356, XIAP), 5 nM fluorescein labeled SMAC peptide, 0.25 nM anti-His-Tb-Fab, and 0.1% DMSO. Dose response curves were generated to determine the concentration required for inhibiting 50% of the HTRF signal (IC50). Compounds were dissolved at 3 mM in dimethylsulfoxide (DMSO) and evaluated at eleven serially diluted concentrations. IC50 and Ki values were derived by non-linear regression analysis.

[2] = target: XIAP BIR2-3 (His-BIR2-3 (125-356, C202A/C213G, XIAP)) (Homo sapiens (Human), UniProt P98170, C202A/C213G); test: XIAP-BIR2-3 Dimeric SMAC Peptide Homogeneous Time Resolved Fluorescence (HTRF) Assay; conditions: read-out: XIAP BIR2-3 FRET IC50; 0.5 nM N-His-BIR2-3, 20 nM fluorescein labeled dimeric SMAC peptide
Procedure: Assays were performed in black, flat-bottom, 384-well plates. The final assay volume was 50 μL prepared from additions of His-BIR2-3 (125-356, C202A/C213G, XIAP), fluorescein labeled dimeric SMAC peptide, and test compounds in assay buffer consisting of 20 mM Sodium Phosphate, 1 mM EDTA, 50 mM NaCl, 50 μg/ml BSA, and 0.05% Pluronic F68. The reaction was incubated at room temperature for 60 minutes, following which 10 μl of mouse anti-6xHis-Tb IgG (Medarex, Cis-bio) was added to the reaction (40 μl) for an additional 30 minute incubation. The HTRF signal, ratio of fluorescence intensities at emission wavelengths for fluorescein acceptor (520 nm) and terbium donor (615 nm), the 520/615 ratio, generated by the reaction was then measured on the Envision Plate Reader. Inhibition data were calculated from the 520/615 ratio generated by the no protein control reactions for 100% inhibition and vehicle-only reactions for 0% inhibition. The final concentration of reagents in the assay was 0.5 nM N-His-BIR2-3(125-356, C202A/C213G, XIAP), 20 nM fluorescein labeled dimeric SMAC peptide, 0.25 nM anti-His-Tb-Fab, and 0.1% DMSO. Dose response curves were generated to determine the concentration required for inhibiting 50% of the HTRF signal (IC50). Compounds were dissolved at 3 mM in dimethylsulfoxide (DMSO) and evaluated at eleven serially diluted concentrations. […]

## CNC(C)C(=O)NC(C(=O)N1CCC2OCc3cn(nn3)CCC(C(=O)O)NC(=O)C(Cc3ccc4ccccc4c3)NC(=O)C3C(CCN3C(=O)C(NC(=O)C(C)NC)C(C)(C)C)OCc3cn(nn3)CCC(C(=O)O)NC(=O)C(Cc3ccc4ccccc4c3)NC(=O)C21)C(C)(C)C (stereo not drawn)
[1]; tested form: TFA salt
  IC50: 16.5 nM

## CN[C@@H](C)C(=O)N[C@H](C(=O)N1CC[C@@H]2[C@H]1C(=O)N[C@@H](Cc1ccc3ccccc3c1)C(=O)N[C@H](C(=O)O)Cc1ccc(cc1)OCc1cn(nn1)[C@@H]1CCN(C(=O)[C@@H](NC(=O)[C@H](C)NC)C(C)(C)C)[C@@H]1C(=O)N[C@@H](Cc1ccc3ccccc3c1)C(=O)N[C@H](C(=O)NCc1cc(F)c(O)c(F)c1)Cc1ccc(cc1)OCc1cn2nn1)C(C)(C)C
[1]
  IC50: 9.1 nM
[2]
  IC50: 1.2 nM
